Here are results for one substance from patent US6229055A, “Synthesis of fluorinated xanthene derivatives” (Molecular Probes, Inc., priority 2000, dated 2001).

Data set [1] is described as follows: Spectral properties of selected fluorinated fluoresceins and rhodols. The format is physicochemical.
Data set [2] in a line: Photodecomposition on illumination in fluorometer. It is filed as physicochemical. The settings on record: % of decreased fluorescence intensity after 33 minutes of illumination in fluorometer at wavelength of maximum excitation. On the procedure:
*% of decreased fluorescence intensity after 33 minutes of illumination in
fluorometer at wavelength of maximum excitation

A short description of data set [3]: pH titration of fluorophores (pKa). The note with it: Table 1.

Substance “5-(and-6)-carboxyfluorescein [reference compound]” came in with an Abs. in data set [1] (absorption maximum) of 492 nm. The substance also registered an Em. in data set [1] (emission maximum) of 516 nm. Further, the “ε × 10^-3” value in data set [1] (extinction coefficient, value is ε × 10^-3) was 82.0 cm^-1 M^-1. In data set [1] (fluorescence quantum yield), the “Quantum Yield” value is given as 0.92. Besides, the photodecomposition in data set [2] came out at 17%. Further, the pKa in data set [3] was found to be 6.4.
